For orientation: IC50 means the concentration that inhibits the measured activity by half.

By UniProt entry, the sequences of proteins in these tests, tags left out. Residues count along the entry.
UniProt P00797, 67-406 limits assumed: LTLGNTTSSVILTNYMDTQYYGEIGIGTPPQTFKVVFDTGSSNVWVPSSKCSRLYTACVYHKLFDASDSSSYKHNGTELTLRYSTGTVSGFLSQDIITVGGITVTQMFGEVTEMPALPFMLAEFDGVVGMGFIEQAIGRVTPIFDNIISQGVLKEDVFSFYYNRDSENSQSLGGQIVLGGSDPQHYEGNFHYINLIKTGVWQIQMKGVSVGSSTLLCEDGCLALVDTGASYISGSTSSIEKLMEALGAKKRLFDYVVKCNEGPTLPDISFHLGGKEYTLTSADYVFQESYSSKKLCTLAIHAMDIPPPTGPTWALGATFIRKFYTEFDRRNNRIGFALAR

In the assay the target is renin (Homo sapiens, UniProt P00797). Put plainly: in vitro renin inhibitory activity, radioimmunoassay for angiotensin I. The following applies: read-out: Activity IC50, renin incubated two hours at 37° with substrate angiotensinogen, angiotensin I by radioimmunoassay, molar concentration causing 50% inhibition. The method, then:
The effectiveness of the aforementioned compound is determined by a test for in vitro renin inhibitory activity. This activity is determined by a standard radioimmunoassay for angiotensin I. In this assay the enzyme, renin, incubated for two hours at 37° in the presence of a substrate, angiotensinogen, generates the product, angiotensin I. Test compounds are added to the incubation mixture. Relative activity is reported as the IC50, which is the molar concentration of test compound causing a 50% inhibition of the renin activity.

Where two headings read alike, the source gives them in different places.

As for `NCc1cccc(CNC(=O)CCC(O)[C@H](CC2CCCCC2)NC(=O)[C@H](Cc2c[nH]cn2)NC(=O)C(Cc2cccc3ccccc23)Cc2cccc3ccccc23)c1` (stereo partly drawn), the IC50 (tested form: 0.6 CH2Cl2 solvate) was found to be 12 µM.
`CC(C)C[C@H](NC(=O)C[C@H](O)[C@H](CC(C)C)NC(=O)[C@H](Cc1c[nH]cn1)NC(=O)C(Cc1cccc2ccccc12)Cc1cccc2ccccc12)C1CC(Cc2ccccc2)C(=O)O1` (stereo partly drawn): for the setting “tested form: 0.3 CH2Cl2 solvate”, the IC50 was determined as 0.57 µM.
As to `CC(C)CC(CC(O)[C@H](CC1CCCCC1)NC(=O)[C@H](Cc1c[nH]cn1)NC(=O)C(Cc1cccc2ccccc12)Cc1cccc2ccccc12)C(=O)NCc1cccc(CN)c1` (stereo partly drawn), for the setting “tested form: 0.5 CH2Cl2 solvate”, the IC50 turned out to be 4.6 µM.
